Our source for the IC50 values is patent US20030162825A1, “D-amino acid oxidase inhibitors for learning and memory” (SEPRACOR INC., priority 2001, published 2003).

Protein sequences, listed by entry. Tags and fused reporters are not part of them. Lines headed by an entry give the natural chain unless they say otherwise; changes in a name come on top.
UniProt P00371: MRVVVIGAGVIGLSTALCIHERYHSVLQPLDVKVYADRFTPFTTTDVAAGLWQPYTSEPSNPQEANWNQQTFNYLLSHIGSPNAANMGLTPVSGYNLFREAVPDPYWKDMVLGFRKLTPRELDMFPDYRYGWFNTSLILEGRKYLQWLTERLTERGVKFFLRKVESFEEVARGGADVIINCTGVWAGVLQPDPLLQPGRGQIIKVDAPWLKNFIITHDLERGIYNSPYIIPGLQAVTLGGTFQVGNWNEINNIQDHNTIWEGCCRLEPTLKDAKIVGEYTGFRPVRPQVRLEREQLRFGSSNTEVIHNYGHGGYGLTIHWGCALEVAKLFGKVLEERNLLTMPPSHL

The target of this test is T1, Porcine kidney D-amino acid oxidase (Sus scrofa, UniProt P00371).
T1 construct: purchased Sigma Company A-5222; host or cells: porcine kidney
In words: D-amino acid oxidase inhibition assay (Amplex Red Hydrogen Peroxide Assay Kit). The class given is biochemical. To be noted: D-serine substrate; reaction time five minutes. The method, then: A working solution was prepared by mixing: sodium phosphate buffer (8.7 ml, 0.025M, pH 7.4), D-serine solution (1.0 ml, 100 mM in water), horseradish peroxidase (0.2 ml, 200 U/ml in buffer), and Amplex™ Red solution (0.1 ml, 1 mg dye in 200 μl in DMSO (50 μM in DMSO)). A working enzyme solution was prepared by diluting a D-amino oxidase stock solution (65 U/ml) one hundred fold. The working solution (100 μl) was transferred to wells of a Microfluor B microtiter plate and a solution of the inhibitor in DMF was added.
Control experiments were carried out using DMF in the absence of inhibitor.

For `CCCC1Nc2c(C(=O)O)ccc([N+](=O)[O-])c2C2C(Cl)C(Sc3ccccc3[N+](=O)[O-])CC12` (stereo not shown) [compound 8], the IC50 was 11 µM.
